The values that follow come from paper PMC12579213.

pKd: −log10 of the molar value.

The term pKd denotes the negative decadic logarithm of the Kd, by convention in mol/L. Read a low pKd as a large Kd. Usually koff stands for the first-order rate constant of dissociation. Low values mean slow dissociation, high ones fast dissociation.

In test [1] the target is 6xHis-CRIB_PAK1 (Homo sapiens). The test is described as follows: BLI. Conditions: natural protein.
The next test deals with 6xHis-tagged RBD_(ROCK1) (UniProt Q13464). The test is described as follows: BLI; BLItz instrument; His-tagged protein loaded on Ni-NTA biosensor for 90 s; association and dissociation 120 s; three concentrations.

Take “GST-tagged Rac1 (Q61L) (from UniProt P63000 1-192)”: in test [1], the pKd is 7.46 and the koff amounted to 0.00119 s⁻¹. As for “GST-tagged Rac1 (Q61L) (from UniProt P63000 1-192) (natural protein)”, the fold lower affinity than RhoA-ROCK with 6xHis-tagged RBD_(ROCK1) amounted to 1.8 fold. “GST-tagged Rac1F37W (Q61L) (from UniProt P63000 1-192) (natural protein)”: the fold lower affinity than RhoA-ROCK with 6xHis-tagged RBD_(ROCK1) was found to be 5.8 fold.
